Our source for the IC50 values is ChEMBL document CHEMBL1133846, “The discovery of anthranilic acid-based MMP inhibitors. Part 3: incorporation of basic amines” (Bioorg Med Chem Lett, 2001).

Sequences of proteins named here, by UniProt entry; tags and fusion partners are left off. A change or cut given only in a name is not applied to a line headed by its entry.
UniProt P14780: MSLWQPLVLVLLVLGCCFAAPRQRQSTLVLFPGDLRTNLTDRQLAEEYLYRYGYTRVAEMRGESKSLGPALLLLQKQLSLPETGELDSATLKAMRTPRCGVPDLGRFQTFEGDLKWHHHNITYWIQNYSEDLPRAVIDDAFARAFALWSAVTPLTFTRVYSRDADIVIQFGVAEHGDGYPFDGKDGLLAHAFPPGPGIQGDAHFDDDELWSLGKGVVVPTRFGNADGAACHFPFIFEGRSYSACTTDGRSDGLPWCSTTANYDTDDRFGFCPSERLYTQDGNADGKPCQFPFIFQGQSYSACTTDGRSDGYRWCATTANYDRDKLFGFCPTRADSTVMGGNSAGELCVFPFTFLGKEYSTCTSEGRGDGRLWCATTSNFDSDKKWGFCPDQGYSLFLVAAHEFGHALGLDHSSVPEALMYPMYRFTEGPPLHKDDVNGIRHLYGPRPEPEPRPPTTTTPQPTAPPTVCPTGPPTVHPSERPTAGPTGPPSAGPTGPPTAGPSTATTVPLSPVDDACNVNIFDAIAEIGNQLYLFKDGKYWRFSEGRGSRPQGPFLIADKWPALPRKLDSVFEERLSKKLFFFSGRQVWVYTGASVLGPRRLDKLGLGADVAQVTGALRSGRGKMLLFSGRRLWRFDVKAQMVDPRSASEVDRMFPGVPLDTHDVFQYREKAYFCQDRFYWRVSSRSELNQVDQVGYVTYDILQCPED

The target of one assay is T1, Interstitial collagenase (Homo sapiens, UniProt P03956).
T1 sequence (P03956 whole entry): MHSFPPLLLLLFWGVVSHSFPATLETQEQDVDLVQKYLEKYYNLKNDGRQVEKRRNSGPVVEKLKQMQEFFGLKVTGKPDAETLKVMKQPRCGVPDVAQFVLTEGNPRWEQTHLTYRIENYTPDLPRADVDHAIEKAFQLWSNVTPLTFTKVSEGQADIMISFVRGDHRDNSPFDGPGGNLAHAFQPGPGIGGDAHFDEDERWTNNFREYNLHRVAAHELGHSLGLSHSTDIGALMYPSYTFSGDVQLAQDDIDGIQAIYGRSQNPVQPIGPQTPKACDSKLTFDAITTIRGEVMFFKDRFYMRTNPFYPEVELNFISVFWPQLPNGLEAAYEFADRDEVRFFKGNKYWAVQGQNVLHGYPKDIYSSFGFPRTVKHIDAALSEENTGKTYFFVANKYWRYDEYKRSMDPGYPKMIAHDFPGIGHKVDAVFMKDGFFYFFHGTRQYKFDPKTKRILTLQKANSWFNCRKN
In words: In vitro inhibition of Matrix metalloprotease-1.

Assay [1] concerns the target Matrix metalloproteinase-9 (Homo sapiens, UniProt P14780). In words: In vitro inhibition of Matrix metalloprotease-9.

Where “and” joins values, the source holds several entries; their conditions need not be identical. Equal entries are not always repeated.

Take `COc1ccc(S(=O)(=O)N(CC#CCN2CCN(C)CC2)c2c(C)cc(Br)cc2C(=O)NO)cc1`: at Interstitial collagenase, half-maximal inhibition (IC50) required 129 nM.
Consider `COc1ccc(S(=O)(=O)N(Cc2cccnc2)c2c(C)cccc2C(=O)NO)cc1`, for which the half-inhibitory concentration (IC50) in assay [1] is 7 nM and 8 nM.

The term IC50 denotes the concentration that gives 50% inhibition. A higher IC50 goes with lower potency.
